In PubChem BioAssay (NCATS):
The entries are a selection whose mix differs from that of the whole data set. Records with an inconclusive call do not appear. The source made the active and inactive calls. Unless noted, calls come from the whole dose curve; as a rule, active = well fitted curve in the direction sought with a large enough effect; inconclusive = small, poorly fitted or top-dose-only effect, or another doubt; inactive = no such curve, though single readings can be large; an effect the other way counts as inactive or inconclusive.

What was measured:
[1] = Cell Viability - LYMP2-021 (AID 974); details: LYMP2-021 lymphoblastoid cells viability; at 92.2 µM (top of the series);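 note: compound exposure lasts 24 hours at 37 °C; % is set by controls: 0 for no effect and ±100 for the full control effect; nearly all actives have a fitted effect of over 55% in size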
How it was run: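 Human lymphoblastoid LYMP2-021 cells, 2500/well in complete medium, treated 24 hours at 37 C. Intracellular ATP by CellTiter-Glo luminescence (30 min, RT); AC50 from Hill fits of concentration-response.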

[2] = Cell Viability - LYMP2-023 (AID 975); details: LYMP2-023 lymphoblastoid cell viability; at 92.2 µM (top of the series);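 note: cellular ATP measured by luciferase luminescence as viability proxy; plate controls were DMSO only for no effect and 92 µM tetraoctylammonium bromide control for full effect; nearly all actives have a fitted effect of over 55% in size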
How it was run: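 LYMP2-023 human lymphoblastoid cells, 2500/well, preincubated 5 hr at 37 C, then compound-treated 24 hr at 37 C in complete medium. CellTiter-Glo luminescence (ATP) after 30 min at room temperature; AC50 from Hill-equation fits; tetraoctylammonium bromide positive control.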

[3] = Cell Viability - LYMP2-025 (AID 976); details: LYMP2-025 lymphoblastoid cell viability; at 92.2 µM (top of the series);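 note: plate controls were DMSO only for no effect and tetraoctylammonium bromide control for full effect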
How it was run: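 Human lymphoblastoid LYMP2-025 cells, 2500/well, exposed 24 h at 37 C in complete medium in 1536-well qHTS. Viability as cellular ATP by CellTiter-Glo luminescence; AC50 from Hill fits of concentration-response data.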

[4] = Cell Viability - LYMP2-002 (AID 977); details: LYMP2-002 lymphoblastoid cell viability, qHTS; at 92.2 µM (top of the series);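 note: compound exposure lasted 24 h at 37 °C; plate controls were DMSO only for no effect and 92 µM tetraoctylammonium bromide for full effect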
How it was run: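 Cytotoxicity is scored as concentration-dependent loss of cellular ATP in a human lymphoblastoid line after 24 hr compound treatment at 37 C. AC50 is obtained by modelling concentration-response data with the Hill equation.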

[5] = Cell Viability - LYMP2-006 (AID 978); details: LYMP2-006 lymphoblastoid cell viability, qHTS; at 92.2 µM (top of the series); note: % is set by controls: 0 for no effect and ±100 for the full control effect; nearly all actives have a fitted effect of over 60% in size
How it was run: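 In this cytotoxicity screen, the human lymphoblastoid line grew in complete medium with test compounds for 24 hr at 37 C. Cellular ATP served as the viability signal.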

[6] = Cell Viability - LYMP2-007 (AID 979); details: LYMP2-007 lymphoblastoid cell viability; at 92.2 µM (top of the series);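 note: cells exposed to compound for 24 h before reading; 0% = DMSO only and the negative end = 92 µM tetraoctylammonium bromide; nearly all actives have a fitted effect of over 60% in size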
How it was run: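 Human lymphoblastoid LYMP2-007 cells (2500/well) preincubated 5 h at 37 C, then treated 24 h at 37 C in complete medium. Viability by CellTiter-Glo ATP luminescence after 30 min at room temperature; AC50 from Hill fits.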

[7] = Cell Viability - LYMP2-008 (AID 980); details: LYMP2-008 lymphoblastoid cell viability, qHTS; at 92.2 µM (top of the series); note: % is set by controls: 0 for no effect and ±100 for the full control effect; nearly all actives have a fitted effect of over 60% in size
How it was run: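 LYMP2-008 lymphoblastoid cells (2500/well) plated 5 h, then treated 24 h at 37 C in complete medium. Viability read as intracellular ATP by CellTiter-Glo luminescence after 30 min at room temperature; AC50 from Hill fits.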

[8] = Cell Viability - LYMP2-010 (AID 981); note: nearly all actives have a fitted effect of over 55% in size; note: potency is the fitted concentration of half-maximal effect
How it was run: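 Human lymphoblastoid LYMP2-010 cells (2500/well) treated 24 h at 37 C in complete medium; viability read as intracellular ATP by CellTiter-Glo luminescence. AC50 from Hill fits of concentration-response data; tetraoctylammonium bromide positive control.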

[9] = Cell Viability - LYMP2-012 (AID 982); details: LYMP2-012 lymphoblastoid cell viability qHTS; at 92.2 µM (top of the series);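 note: cellular ATP by luciferase luminescence where a drop means cytotoxicity; cells exposed to compound for one day before reading; 0% = DMSO only and full loss = 92 µM tetraoctylammonium bromide; nearly all actives have a fitted effect of over 55% in size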
[10] = Cell Viability - LYMP2-014 (AID 983); details: LYMP2-014 lymphoblastoid cells, viability qHTS; at 92.2 µM (top of the series);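 note: plate controls were DMSO only for no effect and 92 µM tetraoctylammonium bromide for full effect; nearly all actives have a fitted effect of over 50% in size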
How it was run: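 LYMP2-014 human lymphoblastoid cells, 2500/well, treated 24 h at 37 C in complete medium; viability by CellTiter-Glo ATP luminescence after 30 min at room temperature. AC50 from Hill fits of qHTS concentration-response; tetraoctylammonium bromide positive control.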

[11] = Cell Viability - LYMP2-016 (AID 984); details: LYMP2-016 lymphoblastoid cell viability, qHTS; at 92.2 µM (top of the series)
How it was run: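 Concentration-dependent ATP depletion measured in LYMP2-016 lymphoblastoid cells, 24 h, 37 C; luciferase-based luminescent detection; Hill-equation AC50.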

[12] = Cell Viability - LYMP2-018 (AID 985); details: LYMP2-018 lymphoblastoid cells, viability (qHTS); at 92.2 µM (top of the series);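 note: compound exposure lasted 24 hr at 37 °C; plate controls were DMSO only for no effect and tetraoctylammonium bromide at 92 µM for full effect; nearly all actives have a fitted effect of over 50% in size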
How it was run: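 Human lymphoblastoid LYMP2-018 cells, 2500/well, settled 5 hr at 37 C then exposed to compound 24 hr at 37 C; intracellular ATP measured by CellTiter-Glo luminescence. AC50 from Hill-equation concentration-response fits.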

[13] = Cell Viability - LYMP2-020 (AID 986); details: LYMP2-020 lymphoma cell viability, qHTS; at 92.2 µM (top of the series)
How it was run: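 Human lymphoblastoid LYMP2-020 cells (2500/well) preincubated 5 h at 37 C, then treated 24 h at 37 C. Viability measured as intracellular ATP by CellTiter-Glo luminescence after 30 min at room temperature; AC50 from Hill fits.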

[14] = Cell Viability - LYMP2-022 (AID 987); details: LYMP2-022 lymphoblastoid cell viability; at 92.2 µM (top of the series)
How it was run: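 LYMP2-022 lymphoblastoid cells (2500/well, complete medium) were treated with compounds for 24 hours at 37 C; intracellular ATP was then read by CellTiter-Glo luminescence after 30 min at room temperature. AC50 values were derived from Hill-equation fits.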

[15] = Cell Viability - LYMP2-024 (AID 988); details: LYMP2-024 lymphoblastoid cell viability; at 92.2 µM (top of the series);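 note: plate controls were DMSO only for no effect and 92 µM tetraoctylammonium bromide for full effect; nearly all actives have a fitted effect of over 60% in size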
How it was run: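 Human lymphoblastoid LYMP2-024 cells (2500/well) rested 5 hr, then treated with compound for 24 hr at 37 C in complete medium. Viability was measured as intracellular ATP by CellTiter-Glo luminescence. AC50 values came from Hill-equation fits.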

[16] = Cell Viability - LYMP2-026 (AID 989); details: LYMP2-026 lymphoblastoid cell viability, qHTS; at 92.2 µM (top of the series); note: % is set by controls: 0 for no effect and ±100 for the full control effect; nearly all actives have a fitted effect of over 50% in size
How it was run: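 Human lymphoblastoid LYMP2-026 cells, 2500/well, exposed to compound 24 h at 37 C in complete medium. Viability as intracellular ATP by CellTiter-Glo luminescence; AC50 from Hill fits of qHTS concentration-response.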

[17] = Cell Viability - LYMP1-002 - Assay at 24 hr (AID 993); details: LYMP1-002 lymphoblastoid cells viability; at 92.2 µM (top of the series); note: % is set by controls: 0 for no effect and ±100 for the full control effect
How it was run: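 Human lymphoblastoid LYMP1-002 cells (2500/well) treated 24 h at 37 °C; viability as intracellular ATP by CellTiter-Glo luminescence. Tetraoctylammonium bromide as positive control; AC50 from Hill-equation fits of qHTS concentration-response.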

[18] = Cell Viability - LYMP1-002 - Assay at 40 hr (AID 994); details: LYMP1-002 lymphoblastoid cell viability; at 92.2 µM (top of the series)
How it was run: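 LYMP1-002 human lymphoblastoid cells (2500/well, complete medium) were treated with compounds for 40 hr at 37 C. Intracellular ATP was measured by CellTiter-Glo luminescence, and AC50 values came from Hill-equation fits of concentration-response data; tetraoctylammonium bromide was the positive control.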

[19] = biological target: alpha-glucosidase (Oryza sativa, rice) (UniProt Q653V4); experiment: Counterscreen for Glucocerebrosidase Inhibitors: qHTS Assay for Rice alpha-Glucosidase at pH 5.0 (AID 997); details: rice alpha-glucosidase enzyme activity; at 76.9 µM (top of the series);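 note: 0% = full activity with enzyme and -100% = basal without enzyme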
How it was run: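 Rice alpha-glucosidase (4 nM final) with 400 uM 4-methylumbelliferyl-alpha-D-glucopyranoside in citrate buffer pH 5.0, 20 min at room temperature, stopped at pH 10; fluorescence 365/440 nm, compounds 0.7 nM–77 uM, AC50 from Hill fits.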

[20] = Validation of Assay for Modulators of Lamin A Splicing (AID 1459; active = well fitted curve in the direction sought with a large enough effect in the signal ratio; the % refers to the signal ratio;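 note: cells exposed to compound for two days before reading; 0% is about no effect; ratio rise marks activators and ratio drop marks inhibitors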); details: Lamin A splicing dual RFP/GFP fluorescence reporter; at 9.22 µM (top of the series)
How it was run: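 Dual-reporter HeLa S3 line (lamin A-EGFP minigene, DsRed2) treated with compounds 48 hrs, 0.5% DMSO final. Endpoint: EGFP/DsRed2 total intensity ratio from laser-scanning microplate cytometry.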

Compound	activity change, negative = cytotoxicity [1]	activity change, negative = cytotoxicity [2]	activity change, negative = cytotoxicity [3]	activity change, negative = cytotoxic [4]	activity change, negative = cytotoxicity [5]	activity change, negative = cytotoxicity [6]	activity change, negative = cytotoxicity [7]	Potency [8]	activity change, negative = cytotoxicity [9]	activity change, negative = cytotoxicity [10]	activity change, negative = cytotoxicity [11]	activity change, negative = cytotoxicity [12]	activity change, negative = viability loss [13]	viability change, negative = cytotoxic [14]	activity change, negative = cytotoxicity [15]	activity change, negative = cytotoxic [16]	activity change, negative = cytotoxicity [17]	viability change, negative = cytotoxic [18]	activity change, negative = inhibition [19]	ratio change, both ways [20]
Cc1cccc([N+](=O)[O-])c1[N+](=O)[O-]	inactive: -5.3%	inactive: 5.46%	inactive: -10.2%	inactive: 6.34%	inactive: -4.27%	inactive: -11.2%	inactive: -14.3%	inactive	inactive: -21.4%	inactive: -9.59%	inactive: -3.53%	inactive: -7.97%	inactive: -15.5%	inactive: -4.88%	inactive: -31.7%	inactive: -12.1%	inactive: -5.08%	inactive: -5.99%		
CCOP(=O)(CC)OCC	inactive: -4.09%	inactive: -2.55%	inactive: -6.72%	inactive: -7.96%	inactive: 11.7%	inactive: -4.19%	inactive: -10.2%	inactive	inactive: 3.23%	inactive: 3.17%	inactive: 0.427%	inactive: -11.9%	inactive: -8.26%	inactive: 5.15%	inactive: -9.96%	inactive: -2.08%	inactive: -0.954%	inactive: 3.49%		
N#[O+].[C-]#N.[C-]#N.[C-]#N.[C-]#N.[C-]#N.[Fe+2].[Na+].[Na+]																			inactive: -2.59%	inactive: -4.7%
CCC(C)(OO)OOC(C)(CC)OO (configuration not stated)	inactive: -21%	inactive: -8.97%	inactive: -5.38%	inactive: -18.3%	inactive: -0.156%		inactive: -18.9%	active: 39.8 µM	inactive: -23.8%	inactive: 6.65%	inactive: -9.43%	inactive: -7.48%	inactive: -6.45%	inactive: -27.6%		inactive: 0.553%	inactive: -6.49%	inactive: -8.03%		
Cc1c([N+](=O)[O-])cccc1[N+](=O)[O-]	inactive: -1.57%	inactive: -7.81%	inactive: -4.26%	inactive: 1.95%	inactive: 10.2%	inactive: -7.67%	inactive: -4.34%	inactive	inactive: -6.07%	inactive: -5.34%	inactive: -1.48%	inactive: -8.67%	inactive: 6.21%	inactive: 12%	inactive: -1.74%	inactive: 4.71%	inactive: 4.39%	inactive: -2.2%		
